# Where a name gives a salt, the structure may show the parent alone.
# How the values were obtained:
# [1] = Phenylquinone writhing test; details: for ED50: Mus musculus, read-out: Phenylquinone Writhing Test ED50; for Inhibition (%) of Occurrence of Pain / Phenylquinone Writhing Test ED50: mice; for Inhibition (%) of Occurrence of Pain: 0.5 mg/kg s.c.
# [2] = Bradykinin nociception test; details: for ED50: Rattus norvegicus, read-out: Bradykinin Nociception Test ED50; for Inhibition (%) of Occurrence of Pain / Bradykinin Nociception Test ED50: rats; for Inhibition (%) of Occurrence of Pain: 2.5 mg/kg s.c.
# [3] = test system: evoked potentials in central nervous system; assay: Effect on the various evoked potentials in central nervous system; assay type: in vivo, Male Wistar rats; set-up: key to Amplitude of Evoked Responses, VP-COR / Amplitude of Evoked Responses, HIP-AMY / Amplitude of Evoked Responses, HIP-SEP: -: No change; --: No change; (+): Levallorphan antagonism; (-): Levallorphan antagonism
# Experimental: Male Wistar rats, weighing 300-350 g, were used under ethyl ether anesthesia. The trachea and femoral vein were cannulated for artificial respiration and drug injection, respectively. Immobilization of the rat was maintained by gallamine thioethiodide (10 mg/kg) given intravenously every one hours. All wound edges were infiltration with carbocaine hydrochloride. The experiments began after at least 2 hours had elapsed from discontinuance of ether anesthesia. The COR (somatosensory cortex) evoked potentials by VP (neucleus ventralis posterior thalamus) stimulation (VP - COR evoked potential) were recorded from somatosensory cortex, through a silver electrode applied directly to the cortex. In order to record VP and MRF (midbrain reticular formation) evoked potentials by sciatic nerve stimulation or AMY (amygdala) and SEP (septum) evoked potentials by HIP (hippocampus) stimulation, bipolar stainless steel electrodes were stereotaxically placed into the VP, MRF, AMY, SEP and HIP. The stimuli were delivered to various sites every 2 seconds from a stimulation and consisted of 0.1 msec rectangular pulses (twice threshold intensity). The evoked responses were visualized on an oscilloscope. All records were made up of 20 superimposed tracings.
# Electric stimuli test = details: for ED50: Mus musculus, read-out: Electric Stimuli Test ED50; for Electric Stimuli Test ED50: mice
# AgNO3 arthritis test = details: for ED50: Rattus norvegicus, sc, read-out: AgNO3 Arthritis Test ED50; for Inhibition (%) of Occurrence of Pain: 5 mg/kg s.c.
# in vivo = details: rat
# Tolerance test = assay type: in vivo; details: continuous administration
# [4] = rats; withdrawal
# Hot plate test = details: for ED50: Rattus norvegicus, sc, read-out: Hot Plate Test ED50
# [5] = Tooth pulp nociception test
# [6] = test system: ventro-medial hypothalamus; assay: Effect on the aggressive-defense reaction produced by electrical stimulation at the ventro-medial hypothalamus of cats; assay type: in vivo; details: for Threshold of current, Ear-flattening / Threshold of current, Growling / Threshold of current, Retreat with provocation / Threshold of current, Pupil dilatation: standard current = 100
# Experimental: The latter used the double-walled cannula method which permitted electrical and chemical stimulation at the same locus in brain. H. Nakao et al. in "Integrative Control Functions of the Brain", vol. […] Similar studies have been done using serotonin by L. H. Allikmets in "Pavlov Journal of High Nervous Activity", 22, 597-602 (1972) and using chlorpromazine, haloperidol, pentobarbital and diazepam by H. Maeda in "Folia Psychiatrica et Neurologica Japonica", 30, 539-546 (1976).
# Alternatively 30 mg/kg of Test compound B was injected subcutaneously.
# central nervous system = assay: Activity on central nervous system; details: in vivo
# Mouse jumping test = details: administration at a lethal dose
# [7] = Antagonism by levallorphan in electric stimuli test; details: electric stimuli test in mice; levallorphan (narcotic antagonist)
# [8] = test system: ventro-medial hypothalamus; details: compared with Test compound B; cited from earlier work
# [9] = calculated from inhibition (%) in a low dose
compound,measurement,setting,value
"Cc1c(N(C)C)c(=O)n(-c2ccccc2)n1C [Aminopyrine, reference compound]",ED50,[1]; po,92 mg/kg
same,ED50,[1]; sc,16 mg/kg
same,ED50,[2]; sc,30 mg/kg
same,"Amplitude of Evoked Responses, HIP-AMY",[3]; 10 mg/kg i.v.,--
same,"Amplitude of Evoked Responses, HIP-SEP",[3]; 10 mg/kg i.v.,--
same,"Amplitude of Evoked Responses, VP-COR",[3]; 10 mg/kg i.v.,--
same,"Amplitude of Evoked Responses, HIP-AMY",[3]; 25 mg/kg i.v.,--
same,"Amplitude of Evoked Responses, HIP-SEP",[3]; 25 mg/kg i.v.,--
same,"Amplitude of Evoked Responses, HIP-AMY",[3]; 50 mg/kg i.v.,--
same,"Amplitude of Evoked Responses, HIP-SEP",[3]; 50 mg/kg i.v.,--
same,ED50,Electric stimuli test; po,315 mg/kg
same,ED50,Electric stimuli test; sc,100 mg/kg
same,ED50,AgNO3 arthritis test,170 mg/kg
same,LD50,in vivo; ip,248 mg/kg
same,LD50,in vivo; po,1050 mg/kg
"COc1ccc2c3c1O[C@H]1[C@@H](O)C=C[C@H]4[C@@H](C2)N(C)CC[C@@]341 [Codeine, reference compound]",tolerance (decrease of effects),Tolerance test,caused a clear tolerance
same,body weight reduction,[4],remarkably reduced
CN1CC[C@]23c4c5ccc(O)c4O[C@H]2[C@@H](O)C=C[C@H]3[C@H]1C5 [Morphine],ED50,Hot plate test,4 mg/kg
same,ED50,[1]; po,2.1 mg/kg
same,ED50,[1]; sc,0.4 mg/kg
same,Inhibition (%) of Occurrence of Pain,[1],78%
same,ED50,[2]; po,50 mg/kg
same,ED50,[2]; sc,6 mg/kg
same,Inhibition (%) of Occurrence of Pain,[2],17%
same,ED50,Electric stimuli test; sc,3 mg/kg
same,Electric Stimuli Test ED50,Electric stimuli test; p.o.,17 mg/kg
same,ED50,AgNO3 arthritis test,0.8 mg/kg
same,Inhibition (%) of Occurrence of Pain,AgNO3 arthritis test; rats,100%
CC(C)=CCN1CCC2(C)c3cc(O)ccc3CC1C2C (stereo not drawn) [Pentazocine],ED50,Hot plate test,30 mg/kg
same,ED50,[1]; po,18 mg/kg
same,ED50,[1]; sc,1.3 mg/kg
same,"Relative potency (Test compound A = 1), Phenylquinone Writhing Test",[1]; calculated from ED50,0.77
same,"Relative potency (Test compound A = 1), Phenylquinone Writhing Test",[1]; [9],0.31
same,Inhibition (%) of Occurrence of Pain,[1],15%
same,ED50,[2]; po,100 mg/kg
same,ED50,[2]; sc,8 mg/kg
same,"Relative potency (Test compound A = 1), Bradykinin Nociception Test",[2]; calculated from ED50,0.5
same,"Relative potency (Test compound A = 1), Bradykinin Nociception Test",[2]; [9],0.34
same,Inhibition (%) of Occurrence of Pain,[2],13%
same,ED50,Electric stimuli test; po,178 mg/kg
same,ED50,Electric stimuli test; sc,23 mg/kg
same,"Relative potency (Test compound A = 1), Tooth Pulp Nociception Test",[5]; calculated from ED50,0.82
same,"Relative potency (Test compound A = 1), Tooth Pulp Nociception Test",[5]; [9],0.59
same,increasing rate in threshold,"[5]; rabbits, 2.5 mg/kg i.v.",44%
same,ED50,AgNO3 arthritis test,10 mg/kg
same,"Relative potency (Test compound A = 1), AgNO3 Arthritis Test",AgNO3 arthritis test; calculated from ED50,0.7
same,"Relative potency (Test compound A = 1), AgNO3 Arthritis Test",AgNO3 arthritis test; [9],0.78
same,Inhibition (%) of Occurrence of Pain,AgNO3 arthritis test; rats,33%
same,LD50,in vivo; po,1100 mg/kg
same,LD50,in vivo; sc,270 mg/kg
"CCOC(=O)C1(c2ccccc2)CCN(C)CC1 [Pethidine, reference compound]","Amplitude of Evoked Responses, HIP-SEP",[3]; 5 mg/kg i.v.,--
same,"Amplitude of Evoked Responses, VP-COR",[3]; 5 mg/kg i.v.,--
same,"Amplitude of Evoked Responses, HIP-SEP",[3]; 10 mg/kg i.v.,--
"O=C1CCN(C2CCN(CC=Cc3ccccc3)CC2)C(=O)N1 [Test compound B, 1-(1-cinnamyl-4-piperidyl)hydrouracil hydrochloride]","Threshold of current, Ear-flattening","[6]; 30 mg/kg s.c., 0 min",100
same,"Threshold of current, Growling","[6]; 30 mg/kg s.c., 0 min",100
same,"Threshold of current, Retreat with provocation","[6]; 30 mg/kg s.c., 0 min",100
same,"Threshold of current, Ear-flattening","[6]; 30 mg/kg s.c., 70 min",120
same,"Threshold of current, Growling","[6]; 30 mg/kg s.c., 70 min",177
same,"Threshold of current, Retreat with provocation","[6]; 30 mg/kg s.c., 70 min",142
same,"Threshold of current, Ear-flattening","[6]; 30 mg/kg s.c., 110 min",105
same,"Threshold of current, Growling","[6]; 30 mg/kg s.c., 110 min",184
same,"Threshold of current, Retreat with provocation","[6]; 30 mg/kg s.c., 110 min",127
same,duration for which the threshold of responses was raised,[6]; 30 mg/kg subcutaneously,over 2 hours
same,rage behaviour with provocation by the experimenter,[6]; 30 mg/kg subcutaneously,did not show rage behaviour
same,duration for which the threshold of current was raised,[6]; 10^-6 g in 0.5 μl through double-walled cannula,60 min
same,"Threshold of current, Ear-flattening","[6]; 10^-6 g in brain, 0 min",100
same,"Threshold of current, Growling","[6]; 10^-6 g in brain, 0 min",100
same,"Threshold of current, Pupil dilatation","[6]; 10^-6 g in brain, 0 min",100
same,"Threshold of current, Retreat with provocation","[6]; 10^-6 g in brain, 0 min",100
same,"Threshold of current, Ear-flattening","[6]; 10^-6 g in brain, 5 min",200
same,"Threshold of current, Growling","[6]; 10^-6 g in brain, 5 min",200
same,"Threshold of current, Pupil dilatation","[6]; 10^-6 g in brain, 5 min",200
same,"Threshold of current, Retreat with provocation","[6]; 10^-6 g in brain, 5 min",180
same,"Threshold of current, Ear-flattening","[6]; 10^-6 g in brain, 20 min",200
same,breathing of the cat,[6]; during this experiment,normal
same,"threatening, rage and retreat reactions",[6]; electrical stimulation of ventro-medial hypothalamus,clearly suppressed
same,ED50,Hot plate test,90 mg/kg
same,muscle relaxant activity,central nervous system,did not show practically such activities
same,reserpine potentiating activity,central nervous system,did not show practically such activities
same,suppression of spontaneous locomotor activity,central nervous system,did not show practically such activities
same,ED50,[1]; po,18 mg/kg
same,ED50,[1]; sc,7.8 mg/kg
same,ED50,[2]; po,100 mg/kg
same,ED50,[2]; sc,10 mg/kg
same,jumping symptom,Mouse jumping test,did not cause any jumping symptom
same,ED50,Electric stimuli test; po,200 mg/kg
same,ED50,Electric stimuli test; sc,40 mg/kg
same,ED50,AgNO3 arthritis test,25 mg/kg
same,LD50,in vivo; ip,150 mg/kg
same,LD50,in vivo; po,1200 mg/kg
same,LD50,in vivo; sc,500 mg/kg
"O=C1CCN(C2CCN(CCc3ccccc3)CC2)C(=O)N1 [Test compound D, 1-(1-phenethyl-4-piperidyl)hydrouracil hydrochloride]",ED50,Hot plate test,200 mg/kg
same,ED50,[1]; po,4 mg/kg
same,ED50,[1]; sc,2.5 mg/kg
same,ED50,[2]; sc,25 mg/kg
same,ED50,Electric stimuli test; po,220 mg/kg
same,ED50,Electric stimuli test; sc,100 mg/kg
same,ED50,AgNO3 arthritis test,90 mg/kg
same,LD50,in vivo; ip,180 mg/kg
same,LD50,in vivo; po,500 mg/kg
same,LD50,in vivo; sc,450 mg/kg
"COc1cccc(C2(O)CCCCC2CN(C)C)c1 (stereo not drawn) [Tramadol, reference compound]",Influence of levallorphan on analgesic activity,[7],reduced
same,Hot Plate Test ED50,"Hot plate test; rats, s.c.",50 mg/kg
same,Phenylquinone Writhing Test ED50,[1]; p.o.,11 mg/kg
same,Phenylquinone Writhing Test ED50,[1]; s.c.,1.5 mg/kg
same,Bradykinin Nociception Test ED50,[2]; p.o.,50 mg/kg
same,Bradykinin Nociception Test ED50,[2]; s.c.,70 mg/kg
same,Electric Stimuli Test ED50,Electric stimuli test; p.o.,23 mg/kg
same,Electric Stimuli Test ED50,Electric stimuli test; s.c.,12 mg/kg
same,Tooth Pulp Nociception Test IT100,"[5]; rabbit, in vivo, iv",5 mg/kg
same,AgNO3 Arthritis Test ED50,"AgNO3 arthritis test; rats, s.c.",17 mg/kg
same,LD50,in vivo; ip,150 mg/kg
same,LD50,in vivo; po,228 mg/kg
same,LD50,in vivo; sc,300 mg/kg
CN(C)CCCN1c2ccccc2Sc2ccc(Cl)cc21 [chlorpromazine],inhibition of threatening and rage reactions,[8],less active
CN1C(=O)CN=C(c2ccccc2)c2cc(Cl)ccc21 [diazepam],inhibition of threatening and rage reactions,[8],less active
CCCC(C)C1(CC)C(=O)NC(=O)NC1=O (stereo not drawn) [pentobarbital],inhibition of threatening and rage reactions,[8],less active

# Source: US4514403A, “Hydrouracil compounds” (Yoshitomi Pharmaceutical Industries Ltd., priority 1980, dated 1985)
